Patent US20200345725A1, “Methods and Compositions for Treating Cancer” (Omeros Corporation, priority 2019, published 2020)

Molecular target: T1, A2bR (Homo sapiens, UniProt P29275)
T1 construct: host or cells: HEK293
T1 sequence (P29275 1-332): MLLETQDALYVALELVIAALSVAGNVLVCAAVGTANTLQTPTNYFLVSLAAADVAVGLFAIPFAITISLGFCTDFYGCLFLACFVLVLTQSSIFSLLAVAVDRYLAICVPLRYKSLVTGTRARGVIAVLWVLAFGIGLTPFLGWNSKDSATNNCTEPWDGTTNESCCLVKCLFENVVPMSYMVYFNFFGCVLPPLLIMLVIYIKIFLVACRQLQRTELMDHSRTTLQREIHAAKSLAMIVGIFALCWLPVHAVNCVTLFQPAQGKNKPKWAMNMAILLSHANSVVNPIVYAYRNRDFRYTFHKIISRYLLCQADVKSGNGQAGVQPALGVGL
Assay: Cre-luciferase reporter assay, HEK293 cells transfected with A2bR
Assay type: cell-based
Conditions: overnight incubation; read-out: A2B (IC50 nM)

In the case of `CCCn1c(=O)c2[nH]c(-c3ccc(OCC(=O)Nc4ccc(C#N)cc4)cc3)nc2n(CCC)c1=O` [MRS-1754], the IC50 is reported as 32 nM.
